## Permeability data for macrocyclic peptides

Collected by the curators of CycPeptMPDB (Li et al. 2023) from Townsend et al. 2020, doi:10.26434/chemrxiv.13335941.v1.

PAMPA is the parallel artificial membrane permeability assay, which has no cells and reads passive diffusion.
P is given in units of 10^-6 cm/s (from log10 values with two decimals); larger means faster passage.

SMILES | PAMPA (10^-6 cm/s)
CCCN1CC(=O)N[C@@H](CC(C)C)C(=O)N[C@H](CC(C)C)C(=O)N2CCC[C@@H]2C(=O)N(Cc2ccccc2)CC(=O)N[C@@H](Cc2ccccc2)C(=O)N2CCC[C@H]2C1=O | 2
CC(C)C[C@H]1NC(=O)[C@H](C)N(C)C(=O)[C@@H]2CCCN2C(=O)[C@H](Cc2ccccc2)NC(=O)[C@H](CC(C)C)N(C)C(=O)[C@@H]2CCCN2C(=O)C[C@H](Cc2ccccc2)NC1=O | 2.6
CC(C)C[C@@H]1C(=O)N(C)[C@@H](CC(C)C)C(=O)N2CCC[C@H]2C(=O)N(Cc2ccccc2)CC(=O)N[C@@H](Cc2ccccc2)C(=O)N2CCC[C@@H]2C(=O)N(C)[C@@H](C)C(=O)N1C | 5.4
CC(C)C[C@@H]1NC(=O)[C@@H](C)N(C)C(=O)[C@H]2CCCN2C(=O)[C@H](Cc2ccccc2)NC(=O)CN(Cc2ccccc2)C(=O)[C@H]2CCCN2C(=O)[C@H](CC(C)C)NC1=O | 0.5
CC(C)C[C@@H]1C(=O)N2CCC[C@H]2C(=O)N[C@H](CC(C)C)C(=O)N[C@@H](Cc2ccccc2)C(=O)N(C)[C@H](C)C(=O)N[C@H](CC(C)C)C(=O)N1C | 11
CC(C)C[C@@H]1NC(=O)[C@@H]2CCCN2C(=O)[C@H](CC(C)C)NC(=O)[C@@H](CC(C)C)NC(=O)[C@H](C)N(C)C(=O)[C@H](Cc2ccccc2)NC1=O | 0.89
CC(C)C[C@@H]1NC(=O)[C@@H]2CCCN2C(=O)[C@@H](CC(C)C)NC(=O)[C@@H](CC(C)C)NC(=O)C[C@H](Cc2ccccc2)NC(=O)[C@@H]2CCCN2C(=O)[C@H](Cc2ccccc2)NC1=O | 6.8
CCCN1CC(=O)N(C)[C@H](CC(C)C)C(=O)N[C@H](CC(C)C)C(=O)N2CCC[C@H]2C(=O)N(C)[C@@H](CC(C)C)C(=O)N[C@@H](Cc2ccccc2)C(=O)N2CCC[C@H]2C1=O | 11
CC(C)C[C@@H]1NC(=O)[C@H]2CCCN2C(=O)[C@@H](CC(C)C)NC(=O)[C@@H](CC(C)C)N(C)C(=O)C[C@H](Cc2ccccc2)NC(=O)[C@@H]2CCCN2C(=O)[C@H](Cc2ccccc2)NC1=O | 2.7
CC(C)C[C@@H]1C(=O)N2CCC[C@H]2C(=O)N(C)[C@H](CC(C)C)C(=O)N[C@@H](Cc2ccccc2)C(=O)N2CCC[C@H]2C(=O)N(C)[C@@H](C)C(=O)N(Cc2ccccc2)CC(=O)N1C | 2.6
CCCN1CC(=O)N[C@@H](CC(C)C)C(=O)N[C@H](CC(C)C)C(=O)N2CCC[C@H]2C(=O)N[C@H](CC(C)C)C(=O)N[C@@H](Cc2ccccc2)C(=O)N2CCC[C@H]2C1=O | 1.3
CC(C)C[C@@H]1C(=O)N2CCC[C@H]2C(=O)N(C)[C@@H](CC(C)C)C(=O)N[C@@H](Cc2ccccc2)C(=O)N2CCC[C@@H]2C(=O)N(C)[C@H](C)C(=O)N(C)[C@@H](CC(C)C)C(=O)N1C | 6.6

Repeated from above, the 2 entries with the highest PAMPA:

| SMILES | PAMPA (10^-6 cm/s) |
|---|---|
| CC(C)C[C@@H]1C(=O)N2CCC[C@H]2C(=O)N[C@H](CC(C)C)C(=O)N[C@@H](Cc2ccccc2)C(=O)N(C)[C@H](C)C(=O)N[C@H](CC(C)C)C(=O)N1C | 11 |
| CCCN1CC(=O)N(C)[C@H](CC(C)C)C(=O)N[C@H](CC(C)C)C(=O)N2CCC[C@H]2C(=O)N(C)[C@@H](CC(C)C)C(=O)N[C@@H](Cc2ccccc2)C(=O)N2CCC[C@H]2C1=O | 11 |

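Lipid, pH, incubation time, direction and concentration are not recorded in the data file. Other peptides of the study may be missing here. Entries at the database's floor value (log10 P of -10) are not listed.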